Patent US20200368371A1, “DYE-PROTEIN COMPLEX FOR NIR II AND PHOTOACOUSTIC IMAGING” (The Board of Trustees of the Leland Stanford Junior …, priority 2019, published 2020)

What was measured:
C57BL/6 mice [1] = test: In vivo NIR-II imaging of vascular system
Procedure: Moreover, using the Gaussian-fitted full width at half maximum (FWHM) of the cross-sectional intensity profiles of the blood vessels, FWHM of the corresponding vessel in the NIR-II window was obtained.
(§1) Before imaging, all mice were anesthetized in a rodent anesthesia machine with 2 L/min O^2 gas mixed with 3% Soflurane. C57BL/6 mice were used for the vascular and lymphatic system NIR-II imaging. […] A gentle massage was performed at the injection site to increase the speed of diffusion into the lymphatic system. […] All groups within the study contained n=3 mice.
(§2) All NIR-II images were collected on a two-dimensional InGaAs array NIR-II system (Princeton Instruments). The excitation was provided by an 808 nm diode laser through an optical fiber and collimator. Fluorescence emission was collected with 1000 nm or more than 1000 nm long-pass filters (Thorlabs). A lens set was used to obtain tunable magnifications ranging from 1× (whole body) to 2.5× (high magnification) by changing the relative position of two NIR achromats (75 mm and 200 mm, Thorlabs). Image J software were used for analyzing the images.
(§3) The fluorescence measurement was performed to quantify NIR-II fluorescence signal intensity through the Image J software (National Institutes of Health, Bethesda, Md.). The line graphs and Gaussian-fitted FWHM were analysis by origin 8.5 (OriginLab Corporation, Northampton, Mass.).

[2] = Stability of fluorescence intensity in PBS, FBS and DI water; assay type: physicochemical; conditions: up to 24 hours
143B osteosarcoma tumor [3] = test: NIR-II and photoacoustic imaging of tumor; assay type: in vivo, mice; conditions: imaged 1 h to 48 h, 808 nm excitation
Procedure: as §1, §2

143B osteosarcoma tumor [4] = test: NIR-II image-guided tumor resection; assay type: in vivo, mice; conditions: after tumor completely removed
From the text: In NIR-II imaging (FIG. 7), tumor could be clearly recognized on the left shoulder where tumor cells had been injected before surgery. After incision of skin, the tumor was exposed with clear delineation with a tumor-to-background ratio of 15 between the tumor and the adjacent tissue.

NIH3T3 cells = test: MTT cytotoxicity assay; assay type: cell-based, mouse; conditions: NIH3T3, concentrations up to 200 μM, 48 h
Procedure: NIH3T3 cells (5×10^3 cells per well) were seeded in 96-well plates in DMEM with 10% FBS. […] After that, MTT (10 μl, 0.5 mg/ml) solution was added to each well and incubated for 4 h at 37° C. The residues were lysed with 200 μl of dimethyl sulfoxide after removing the supernatant. Then a standard MTT method was performed for measuring the cell viability with a Bio-Rad microplate reader. The relative cell viability (%) was calculated by (Asample/Ablank)×100%. All samples were used in triplicate, and the related experiments were all replicated three times.

[5] = Photostability under continuous illumination at 808 nm; assay type: physicochemical; conditions: DI water, 10 μM
From the text: The enhancement in FBS might be attributable to the increased albumin from FBS. Additionally, the decrease in fluorescence intensity in PBS might be due to an increase in ionic strength in PBS, which partly affects the binding stability between IR-820 and HSA (Jones et al., (2012) Thermochim. Acta 545: 112-115).
After normalized by dividing the fluorescence intensity of each time point by the fluorescence intensity at t=0, the photobleaching curves were made.

[6] = Absorbance spectra in deionized water; assay type: physicochemical; conditions: DI water
From the text: To investigate the binding site of IR-820 with HSA molecular modeling using SybyI-X software was used. […] Many commonly used drugs with acidic or electronegative features bind to HSA, usually at one of two primary sites, located in subdomains IIA and IIIA, respectively (Hoogenboezem & Duvall (2018) Adv. Drug Deliv. Rev. 130: 73-89; Ghuman et al., (2005) J. Mol. Biol. 353: 38-52). […] IIA also contains a large hydrophobic cavity with the ability to bind many kinds of drugs, which is in consist with the result shown in FIG. 10. […] Upon binding to HSA, the free single-button rotation of IR-820 is limited by HSA, resulting in enhanced fluorescence by a mechanism similar to aggregation-induced emission, in which the free movement of the fluorophore is reduced to produce brighter fluorescence and reduced fluorescence self-quenching (Li & Li (2017) Adv. Sci. (Weinh) 4: 1600484; Anger et al., (2006) Phys. Rev. Lett. 96: 113002). […]
Absorbance spectra of IR-820 and complexes were taken on an ultraviolet-visible-NIR Cary 60 spectrometer (Agilent Technologies) with background correction. The NIR-II fluorescence emission spectrum was captured on a home-built spectroscopy set-up by exciting IR-820 and complexes with an 808 nm laser diode with a power output of 100 mW. […]

143B osteosarcoma tumor [7] = test: Ex vivo NIR-II fluorescence biodistribution in dissected tumor and organs; design: species or system mice; conditions: 8 h after injection
Procedure: (§4) Ex vivo NIR II fluorescence imaging of the dissected tumor and organs obtained from tumor-bearing mice 8 h after injection were used to further assess the biodistribution of probe (FIG. 6D). […] 7 days after imaging, the mice were killed and dissected. […] After coating with HSA, IR-820 successfully imaged the tumor with vasculature leakiness combined with poorly formed lymphatic drainage.

C57BL/6 mice [8] = test: In vivo NIR-II imaging of lymphatic system
Procedure: For the right low limb blood vessel in FIG. 3B, the adjacent artery and vein were distinguished in the middle part of the limb, with the SBR of 2.05, 2.25 and FWHM of 406 μm, 633 μm (FIG. 3D), respectively. […] Small blood vessels were visible in the abdomen (FIG. 3C). […] A gentle massage was performed on the injection site for faster diffusion into the lymphatic system. The popliteal sciatic lymph nodes connected with lymphatic vessels were identified after probe injection into each side of the footpad. However, the fluorescence intensity on the right side was more evident (FIG. 4A). The right inguinal lymph node and connected lymphatic vessels were sequentially observed after the probe was subcutaneously injected into the middle of the tail.
as §1, §2, §3

[9] = H&E staining of major organs and tumor after injection; assay type: in vivo, mice; conditions: 7 days after injection/imaging, heart, lung, liver, spleen, kidney
Procedure: as §4
The obtained major organs were fixed with 4% paraformaldehyde overnight. Afterwards, these organs were embedded in optimal cutting temperature (OCT) compound (TISSUE-TEK®, Sakura Finetek, USA), sectioned into 8 μm slices in the cryostat at −20° C. with a microtome and transferred onto microscope slides for hematoxylin and eosin (H&E) using SHANDON® rapid Chrome kit (Thermo Scientific, USA). The stained sections were imaged under NanoZoomer 2.0RS.

U87 glioma tumor = test: NIR-II imaging of tumor blood supply network; assay type: in vivo, mice
From the text: To visualize the blood supply network in a tumor, NIR-II images were captured after injection of heated IR-820-HSA into the tail vein of tumor-bearing nude mice. […] The original main blood supply vessels are shown in FIG. 5D and a week later in FIG. 5E, the results being verified after dissection, as shown in FIG. 5F.
The resolutions of the tumor blood vessels under different wavelength filters of 1000LP and 1200LP were compared using SBR and Gaussian FWHM. SBR and FWHM increased from 1.4 to 1.8 and from 656 μm to 441 μm, respectively (FIG. 5C). A tumor blood supply network with gradual change was clearly observed in NIR-II images, illustrating that fluorescence-visible monitoring is possible for tumor blood vessels treatment.
U87MG human glioma, 143B human bone osteosarcoma, and mouse embryonic fibroblast NIH/3T3 cell lines were obtained from the American Type Culture Collection and cultured in high-glucose Dulbecco's modified Eagle medium (DMEM) containing 10% FBS, 100 IU/mL penicillin, and 100 μg/mL streptomycin at 37° C. with 5% CO2 atmosphere. Eight-week-old female C57BL/6 mice and NU/NU mice were used. About 2×10^6 U87MG or 143B cells in DMEM media (no FBS) were hypodermically injected into the left shoulder of the nude mice.
as §1, §2

[10] = right low limb, middle part, heated IR-820-HSA i.v.
[11] = right low limb, middle part, heated IR-820-HSA i.v., 30 min after injection
[12] = lateral position, tail injection
[13] = prone position, subcutaneous footpad injection
[14] = supine position, tail injection

In the case of “IR-820-HSA: dye-protein complex of IR-820 and human serum albumin, mixed in DI water at molar ratio 1:2”, the “FWHM of blood vessels” value (C57BL/6 mice [1]; abdomen) is reported as 246 μm, the “highest SBR of blood vessels” value (C57BL/6 mice [1]; abdomen) is reported as 2.4 and the “circulation retention in vivo” value (C57BL/6 mice [1]; clear blood vessel images still available for 30 mins) is reported as “good circulation retention time”. For the same substance, the FWHM of artery (C57BL/6 mice [1]; [10]) was 406 μm, the FWHM of vein (C57BL/6 mice [1]; [10]) was 633 μm and the SBR of artery (C57BL/6 mice [1]; [11]) was 2.05. For the same substance, the SBR of vein (C57BL/6 mice [1]; [11]) was 2.25, the “SNR of blood vessel” value (C57BL/6 mice [1]; right low limb, proximal end of the blood vessel) was 2.93 and the “increase of fluorescence intensity” value ([2]; in DI water) was ~20%. For the same substance, the “increase of fluorescence intensity” value ([2]; in FBS) was ~20%, the “time of maximum NIR II fluorescence signal in the tumor after injection” value (143B osteosarcoma tumor [3]) was “about 18 h” and the “residue in NIR-II imaging after resection” value (143B osteosarcoma tumor [4]) was “no residue was found”. The “cytotoxicity (MTT)” value (NIH3T3 cells) was “No apparent cytotoxicity”, the “photostability compared to free IR-820” value [5] was “greater photostability” and the absorbance strong peak [6] was 835 nm. For the same substance, the absorbance weak shoulder [6] was 765 nm, the “ex vivo NIR II fluorescence in liver” value (143B osteosarcoma tumor [7]) was “accumulation” and the “ex vivo NIR II fluorescence in tumor” value (143B osteosarcoma tumor [7]) was “high NIR II fluorescence intensity”. For the same substance, the “FWHM of lymphatic vessels” value (C57BL/6 mice [8]; [12]) was 472 μm, the “SBR of lymphatic vessels” value (C57BL/6 mice [8]; [12]) was 1.94 and the “FWHM of lymphatic vessels” value (C57BL/6 mice [8]; [13]) was 551 μm. The “SBR of lymphatic vessels” value (C57BL/6 mice [8]; [13]) was 4.77, the “FWHM of lymphatic vessels” value (C57BL/6 mice [8]; [14]) was 420 μm and the “SBR of lymphatic vessels” value (C57BL/6 mice [8]; [14]) was 2.33. The “H&E stained major organ and tumor slices” value [9] was “no abnormality was observed; also recorded: No abnormalities were observed”.

In the case of “heated IR-820-HSA: IR-820-HSA complex solution put in water bath for 10 min at 60° C.”, the “FWHM of tumor blood vessels” value (U87 glioma tumor; 1000LP filter) is reported as 656 μm, the “SBR of tumor blood vessels” value (U87 glioma tumor; 1000LP filter) is reported as 1.4 and the “FWHM of tumor blood vessels” value (U87 glioma tumor; 1200LP filter) is reported as 441 μm. The “SBR of tumor blood vessels” value (U87 glioma tumor; 1200LP filter) was 1.8.

Entries after “also recorded” stand apart in the source; their conditions may differ.
